Antibody variant affinities, Ab-14 light chain, assay B

Antigen: PDVDLGDISGINAS, a 14-residue peptide of the SARS-CoV-2 spike HR2 region.

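The variants were designed computationally from a first round of random CDR variants and then made and measured. Their group label is 14L_En_Gibbs (En: ensemble of fine-tuned language models; Gibbs: Gibbs sampling). The assay is AlphaSeq: two haploid yeast populations carry antibody and antigen on their surface. Pairs that bind mate more often; barcode pairs of the diploids are counted by sequencing. Scores were corrected for input abundance and mapped to Kd with protein pairs of known affinity run in the same pool. There are six technical replicates.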

Ab-14 is the parent antibody, in scFv form: VH, then the linker GGGGSGGGGSGGGGS, then VL. The heavy chain is unchanged in all variants.
VH: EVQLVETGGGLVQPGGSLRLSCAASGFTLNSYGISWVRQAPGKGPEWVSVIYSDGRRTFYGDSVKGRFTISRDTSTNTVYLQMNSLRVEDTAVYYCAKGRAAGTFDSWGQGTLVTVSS
VL: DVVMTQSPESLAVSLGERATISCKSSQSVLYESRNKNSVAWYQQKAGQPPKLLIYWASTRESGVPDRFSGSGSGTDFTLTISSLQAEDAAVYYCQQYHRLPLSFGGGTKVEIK

Each variant is given by its three light chain CDRs, as the data file delimits them; those of the parent are KSSQSVLYESRNKNSVA, WASTRES, QQYHRLPLS. Numbers give log10(Kd / nM), so 0 is 1 nM and 3 is 1 µM. Smaller is tighter. Averages over replicates are reported, and they cover detected replicates only. An entry "nd" has no value in the source: the pair was not observed among the diploids in that replicate. This suggests poor binding but is not conclusive. The parent sequence was in this pool as ten entries: three were never detected, three once, and four in most replicates, with averages from 0.34 to 2.37. The authors' rule: three or more of the six replicates give a measured affinity, fewer mean a poor binder. A sequence measured in both rounds can read differently, since the two assays cover different ranges. As a blank, each scFv also met three strains without target: over all light chain designs, 4% of these pairings were detected, typically at 2.64 and seldom below 1.59. The control count says in how many pairings with the empty strains this scFv gave a signal, with their mean in brackets.

| CDR-L1 | CDR-L2 | CDR-L3 | log10 Kd (nM) by replicate | mean log10 Kd (nM) | signal with controls |
|---|---|---|---|---|---|
| MIEEGHAGENKNSSNIA | SQDQKTD | QQYQRLPLI | 0.76 / 0.88 / 0.91 / 0.89 / 1.06 / 1.28 | 0.96 | 4 of 18 (1.91) |
| NLGGEDFNSTYGMKAVA | DVSEVGE | QHYSRLPLS | 1.74 / 1.94 / 1.28 / 1.71 / 1.17 / 2.26 | 1.68 | 1 of 18 (2.65) |
| KLEEEADVITESGNSVA | EMSMVMD | QQYHRLPLA | 1.68 / 1.40 / 1.63 / 1.68 / 1.22 / 1.57 | 1.53 | 1 of 18 (2.82) |
| MMLSHMLEVQNIQNAVA | EASMVYD | QQYGSLPLS | nd / nd / nd / nd / nd / nd | nd | 0 of 18 |
| KVSIFMLTMDNAWSHIA | NMAEERT | QQYQRLPLS | nd / nd / nd / nd / nd / nd | nd | 0 of 18 |
| NMQLQVRSDNNNKYNIA | DEMLREY | QQYNRLPLS | 0.72 / 0.92 / 0.97 / 0.46 / 1.17 / 0.76 | 0.83 | 2 of 18 (2.83) |
| RVRLNSGEIDMHWYNIA | SASIRAD | QQYFRLPIF | 0.91 / 0.73 / 1.03 / 0.58 / 0.64 / 0.54 | 0.74 | 0 of 18 |
| NLVGRVPDMYDGRNAIA | DMHCRAT | QQYFRLPLA | 2.17 / 1.29 / 1.59 / 0.82 / 1.24 / 1.29 | 1.40 | 0 of 18 |
| SMTGDLLDGNREPSNIA | AQDIGTD | QQYHRLPFI | 0.67 / 0.30 / 0.42 / 0.17 / 0.46 / 0.01 | 0.34 | 0 of 18 |
| VYNLPFEGYQPKKYSIA | NAEIREI | QQYFRLPIL | -0.02 / 0.06 / -0.42 / 0.51 / -0.06 / 0.47 | 0.09 | 0 of 18 |
| NLSIQCQHQNMSANAVA | QTEIRCE | QQYAQLPLA | 1.23 / 1.24 / 1.50 / 2.09 / 1.20 / 1.05 | 1.38 | 0 of 18 |
| HSSPSYYYDSRNKNHVA | DATTRES | QQYHRLPLT | 0.18 / 0.56 / 0.30 / 0.38 / 0.23 / 0.49 | 0.36 | 0 of 18 |
| HVAGMMGQMGTQHQNIA | DMAIKCD | QQYQRLPLH | 0.36 / 0.18 / 0.11 / -0.02 / 0.18 / 0.31 | 0.19 | 2 of 18 (3.01) |
| RIFYREEEDLRHESSIA | NGSARVF | QQYYMLPLS | 0.91 / 0.80 / 1.05 / 0.91 / 0.97 / 1.29 | 0.99 | 1 of 18 (3.46) |
| KIELDLTRYNAGGANIA | HETMKAQ | QQYSHLPLI | 2.04 / 1.67 / 1.67 / 1.74 / 1.70 / 1.97 | 1.80 | 1 of 18 (3.48) |
| FIMHFGEEANLNSKNIA | AKNTRVD | QQYNRLPLS | 0.91 / 1.00 / 0.10 / 0.43 / 0.85 / 1.71 | 0.83 | 0 of 18 |
| RLMGWGPDQIQHANSIA | DRDEVDS | QQYAHLPLS | 1.28 / 1.34 / 1.60 / 1.35 / nd / 1.74 | 1.46 | 0 of 18 |
| KLSQGTYGLTQSDSNVA | HDEMRWA | QQYDKLPLI | nd / 1.50 / nd / nd / 2.01 / nd | 1.76 | 2 of 18 (2.12) |
| TMNVELAYGVPEMNNVA | AGSQKLA | QQYYRLPLS | 0.43 / 0.34 / 0.23 / 0.06 / 0.33 / 0.38 | 0.30 | 2 of 18 (2.84) |
| KVDISPHVQGMHKSGVA | EHDMRVS | QQYDRLPLA | 1.69 / 1.47 / 0.89 / 0.87 / 1.10 / 1.22 | 1.21 | 0 of 18 |
| TLMHHQDRYDVWKKSIA | EASIRAS | QQYQRLPLA | 0.49 / 0.49 / 0.29 / 0.70 / 0.14 / 0.56 | 0.44 | 0 of 18 |
| SFHEINMEGLATNANVA | NASQLFS | QHYFRLPLQ | 1.44 / 1.31 / 0.73 / 1.20 / 1.21 / 1.45 | 1.22 | 0 of 18 |
| QLFFNDFQYDIESQNIA | QASLREV | QQYARLPLV | 0.67 / 0.61 / 0.42 / 1.06 / 0.48 / 0.90 | 0.69 | 0 of 18 |
| KMTEQLLNGEREPSNIA | AQVIGSD | QQYHRLPLI | nd / nd / nd / nd / nd / nd | nd | 2 of 18 (2.05) |
| HITDLMYFNNEGEKNIA | DKNISVM | QQYFRLPLS | 0.29 / 0.12 / 0.12 / 0.19 / 0.21 / 0.39 | 0.22 | 1 of 18 (2.12) |
| SMIPFDNQIMKGTNNIA | HVSVRAS | QQYARLPLV | 1.22 / 1.69 / 1.71 / 1.21 / 2.40 / 2.98 | 1.87 | 0 of 18 |
| QLDQAYRVGELWKESIA | HGSMRVE | QCYVRLPLS | 1.09 / 1.29 / 1.36 / -0.03 / 1.71 / 1.00 | 1.07 | 0 of 18 |
| TLYMGPTEARDSKHAIA | DNNERDR | QQYHRLPLV | 0.69 / 0.60 / 0.31 / 0.34 / 0.39 / 0.40 | 0.45 | 0 of 18 |
| VFQQQWDGVTLTNSAVA | NVDERME | QQYNRLPLM | 0.71 / 0.59 / 0.35 / 0.55 / 0.35 / 0.56 | 0.52 | 1 of 18 (2.91) |
| SLMHLSFVHPREWNNVA | DASVKAS | QQYFRLPLV | 0.72 / 0.42 / 0.46 / 0.48 / 0.49 / 0.69 | 0.54 | 1 of 18 (2.25) |
| KLMGNIEYGATRQYNIA | EERMVGA | QQYFHLPLI | nd / nd / nd / nd / nd / nd | nd | 1 of 18 (1.95) |
| KLANEMYQGSLVQANVA | EGKELWE | QQYGHLPLA | 2.48 / nd / 1.02 / 2.46 / 2.15 / 1.78 | 1.98 | 1 of 18 (1.81) |
| MLDQMDGQMGGNTNNIA | GVVESRI | QQYHRLPLS | 1.98 / 1.42 / 1.87 / 2.98 / 0.86 / 2.15 | 1.88 | 1 of 18 (2.10) |
| MLDQMDGQMGGNTNNIA | DVVENRI | QQYHRLPLS | 1.49 / 0.78 / 0.85 / 0.51 / 0.92 / 0.55 | 0.85 | 0 of 18 |
| KLQNFSQEDNKMWNNIA | ETTMVHT | QQYMTLPLM | 1.32 / 1.15 / 0.74 / 1.65 / 1.90 / 1.64 | 1.40 | 0 of 18 |

The 3 strongest on average among those seen in every replicate, once more:

| CDR-L1 | CDR-L2 | CDR-L3 | log10 Kd (nM) by replicate | mean log10 Kd (nM) | signal with controls |
|---|---|---|---|---|---|
| VYNLPFEGYQPKKYSIA | NAEIREI | QQYFRLPIL | -0.02 / 0.06 / -0.42 / 0.51 / -0.06 / 0.47 | 0.09 | 0 of 18 |
| HVAGMMGQMGTQHQNIA | DMAIKCD | QQYQRLPLH | 0.36 / 0.18 / 0.11 / -0.02 / 0.18 / 0.31 | 0.19 | 2 of 18 (3.01) |
| HITDLMYFNNEGEKNIA | DKNISVM | QQYFRLPLS | 0.29 / 0.12 / 0.12 / 0.19 / 0.21 / 0.39 | 0.22 | 1 of 18 (2.12) |

From the AlphaSeq antibody data of Li et al. 2023 (doi:10.1038/s41467-023-39022-2), copy in the FLAb collection.